# Measurements reported in patent US20020123080A1, “Inhibiting proliferation of cancer cells” (Tufts University, priority 1996, published 2002).
# System: MCF-7 cells
# Experiment: MCF-7 cell proliferation yield assay (nuclei counted after 4 days) with or without hormone
# Type: cell-based, human
# Conditions: 4 days in ITDME plus test preparation; nuclei counted on Coulter Counter; FIG. 4 dose response
# Procedure: A clonal population of the human breast cancer MCF-7 cell line was used in some of the experiments described below. These cells were routinely grown in 5% fetal bovine serum (FBS) supplemented-Dulbecco's Modified Eagle's Medium (DME). Charcoal-dextran (CD) stripped serum-supplemented medium inhibits their proliferation and estradiol cancels this effect. Estrogen non-target, serum-insensitive human breast cancer MDA-MB231 cells (ATCC, Rockville, Md.) were used as controls; they were grown under the same conditions as MCF-7 cells.
# To assess the inhibitory effect of serum or purified protein preparations, 4×10^4 cells/well were seeded in 12-well Falcon Multiplates in 5% FBS; they were allowed to attach for 24 h before exposing them to test medium. Cell proliferation yields were measured after 4 days in DME plus 25 ug transferrin (T)/ml and 100 ng insulin (I)/ml ([…]) alone, or ITDME plus CD human serum (CDHuS), or purified protein preparations. Each sample was tested in duplicate in the presence or absence of 100 pM estradiol (E2) and each experiment was repeated at least three times. Phenol red-free media were used in all experiments involving cell proliferation rates or yields. Cells were lysed and nuclei counted on a Coulter Counter Model ZM. Estrogens were removed from serum, HA (Sigma Chemical Co.; cat. no. A1887) and from rHA preparations by CD stripping. […]
row,Substance,inhibition of proliferation of MCF-7 cells
1,"CDHA: human albumin (HA, Sigma cat. no. A1887) with estrogens removed by CD stripping",inhibited the proliferation of MCF-7 cells in a dose-dependent manner
2,"rHA: recombinant human albumin from Delta Biotechnology Ltd., produced in yeast",inhibited the proliferation of these cells
